Source: patent US8962608B2, “Cycloalkylnitrile pyrazole carboxamides as janus kinase inhibitors” (Merck Sharp & Dohme Corp., priority 2011, dated 2015)

Amino acid sequences for entries named in this document (tags omitted). Residues count along the entry.
UniProt P23458, 875-1153: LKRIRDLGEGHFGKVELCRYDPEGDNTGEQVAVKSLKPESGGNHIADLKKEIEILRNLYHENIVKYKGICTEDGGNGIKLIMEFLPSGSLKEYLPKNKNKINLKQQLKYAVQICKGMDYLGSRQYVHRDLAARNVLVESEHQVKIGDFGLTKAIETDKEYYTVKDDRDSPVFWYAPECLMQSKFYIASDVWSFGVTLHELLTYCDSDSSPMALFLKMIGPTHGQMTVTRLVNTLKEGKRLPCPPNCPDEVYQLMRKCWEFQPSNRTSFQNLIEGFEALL

Molecular target: JAK1 (recombinant purified GST-tagged catalytic domain) (Homo sapiens (Human), UniProt P23458)
Test: biochemical
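Note: biochemical assay with HTRF read-out.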

Row | Compound | IC50 [nM]
1 | CC(C)(N[C@H]1CCC(n2cc(C(N)=O)c(Nc3ccccc3)n2)[C@@H](C#N)C1)C1CC1 (single isomer, unassigned) [Example 28-214, 1-{(1S,2S,4S or 1R,2R,4R)-2-cyano-4-[(1-cyclopropyl-1-methylethyl)amino]cyclohexyl}-3-(phenylamino)-1H-pyrazole-4-carboxamide] | 1
2 | CN(C)[C@@H]1CC[C@H](n2cc(C(N)=O)c(Nc3ccc(OC(F)(F)F)cc3)n2)[C@@H](C#N)C1 (single isomer, unassigned) [Example 28-54, 1-[(1S,2S,4R or 1R,2R,4S)-2-cyano-4-(dimethylamino)cyclohexyl]-3-{[4-(trifluoromethoxy)phenyl]amino}-1H-pyrazole-4-carboxamide] | 5
3 | N#C[C@H]1C[C@H](O)CC[C@@H]1n1cc(C(N)=O)c(Nc2ccc(OC(F)F)nc2)n1 (single isomer, unassigned) [Example 25-1, 1-[(1S,2S,4R or 1R,2R,4S)-2-cyano-4-hydroxycyclohexyl]-3-{[6-(difluoromethoxy)pyridin-3-yl]amino}1H-pyrazole-4-carboxamide] | 8
4 | CC1(CN[C@@H]2CC[C@H](n3cc(C(N)=O)c(Nc4ccc(C(F)(F)F)cc4)n3)[C@@H](C#N)C2)COC1 (single isomer, unassigned) [Example 28-16, 1-[(1S,2S,4R or 1R,2R,4S)-2-cyano-4-{[(3-methyloxetan-3-yl)methyl]amino}cyclohexyl]-3-{[4-(trifluoromethyl)phenyl]amino}-1H-pyrazole-4-carboxamide] | 1
5 | CN(C)[C@H]1CC[C@@H](n2cc(C(N)=O)c(Nc3ccc(C(F)(F)F)nc3)n2)[C@H](C#N)C1 (single isomer, unassigned) [Example 28-27, 1-[(1R,2R,4S or 1S,2S,4R)-2-cyano-4-(dimethylamino)cyclohexyl]-3-{[6-(trifluoromethyl)pyridin-3-yl]amino}-1H-pyrazole-4-carboxamide] | 50
6 | CC1(N[C@H]2CCC(n3cc(C(N)=O)c(Nc4ccc(Cl)cc4)n3)[C@@H](C#N)C2)CCOCC1 (single isomer, unassigned) [Example 28-235, 3-[(4-chlorophenyl)amino]-1-{(1S,2S,4S or 1R,2R,4R)-2-cyano-4-[(4-methyltetrahydro-2H-pyran-4-yl)amino]cyclohexyl}-1H-pyrazole-4-carboxamide] | 0.85
7 | N#C[C@H]1C[C@@H](NCC(F)(F)F)CC[C@@H]1n1cc(C(N)=O)c(Nc2ccc(S(=O)(=O)C(F)(F)F)cc2)n1 (single isomer, unassigned) [Example 28-107, 1-{(1S,2S,4S or 1R,2R,4R)-2-cyano-4-[(2,2,2-trifluoroethyl)amino]cyclohexyl}-3-({4-[(trifluoro-methyl)sulfonyl]phenyl}amino)-1H-pyrazole-4-carboxamide] | 2
8 | N#C[C@@H]1C[C@@H](OCC2CC2)CC[C@H]1n1cc(C(N)=O)c(Nc2ccc(F)cc2)n1 (single isomer, unassigned) [Example 26-10, 1-[(1R,2R,4S or 1S,2S,4R)-2-cyano-4-(cyclopropylmethoxy)cyclohexyl]-3-[(4-fluorophenyl)amino]-1H-pyrazole-4-carboxamide] | 21
9 | N#C[C@H]1CCCC[C@@H]1n1cc(C(N)=O)c(Nc2cnc3cc(Cl)ccc3c2)n1 (single isomer, unassigned) [Example 17-61, 3-[(7-chloroquinolin-3-yl)amino]-1-[(1S,2S or 1R,2R)-2-cyanocyclohexyl]-1H-pyrazole-4-carboxamide] | 4
10 | CC1(C)CN([C@H]2CC[C@H](n3cc(C(N)=O)c(Nc4ccc(C(F)(F)F)cc4)n3)[C@@H](C#N)C2)C1 (single isomer, unassigned) [Example 28-202, 1-[(1S,2S,4S or 1R,2R,4R)-2-cyano-4-(3,3-dimethylazetidin-1-yl)cyclohexyl]-3-{[4-(trifluoromethyl)phenyl]amino}-1H-pyrazole-4-carboxamide] | 0.75
11 | N#C[C@H]1CC(N2CCC[C@@H]2CF)CC[C@@H]1n1cc(C(N)=O)c(Nc2ccc(S(=O)(=O)C(F)(F)F)cc2)n1 (single isomer, unassigned) [Example 28-156, 1-{(1S,2S or 1R,2R)-2-cyano-4-[(2R)-2-(fluoromethyl)pyrrolidin-1-yl]cyclohexyl}-3-({4-[(trifluoro-methyl)sulfonyl]phenyl}amino)-1H-pyrazole-4-carboxamide] | 1
12 | CC(C)(C)OC(=O)NC1CC[C@@H](C#N)C(n2cc(C(N)=O)c(Nc3ccc(F)cc3)n2)C1 (mixture of isomers) [Example 11-4, tert-butyl [(3R,4S and 3S,4R)-3-{4-carbamoyl-3-[(4-fluorophenyl)amino]-1H-pyrazol-1-yl}-4-cyanocyclohexyl]carbamate] | 0.8

Further lines, results first:

Row | IC50 [nM] | Compound
13 | 0.65 | N#C[C@H]1C[C@H](N2CCC2)CC[C@@H]1n1cc(C(N)=O)c(Nc2ccc([C@@H](O)C(F)(F)F)cc2)n1 (single isomer, unassigned) [Example 28-85, 1-[(1S,2S,4R or 1R,2R,4S)-4-azetidin-1-yl-2-cyanocyclohexyl]-3-({4-[(1R or 1S)-2,2,2-trifluoro-1-hydroxyethyl]phenyl}amino)-1H-pyrazole-4-carboxamide]
14 | 0.75 | CN(C)[C@H]1CC[C@H](n2cc(C(N)=O)c(Nc3ccc(OC(F)(F)F)cc3)n2)[C@@H](C#N)C1 (single isomer, unassigned) [Example 28-86, 1-[(1S,2S,4S or 1R,2R,4R)-2-cyano-4-(dimethylamino)cyclohexyl]-3-{[4-(trifluoromethoxy)phenyl]amino}-1H-pyrazole-4-carboxamide]
15 | 0.3 | N#C[C@H]1C[C@H](N2CCC2)CC[C@@H]1n1cc(C(N)=O)c(Nc2ccc([C@H](O)C(F)(F)F)cc2)n1 (single isomer, unassigned) [Example 28-65, 1-[(1S,2S,4R or 1R,2R,4S)-4-azetidin-1-yl-2-cyanocyclohexyl]-3-({4-[(1S or 1R)-2,2,2-trifluoro-1-hydroxyethyl]phenyl}amino)-1H-pyrazole-4-carboxamide]
16 | 0.3 | N#C[C@H]1C[C@@H](N2CCC2)CC[C@@H]1n1cc(C(N)=O)c(Nc2ccc([C@H](O)C(F)(F)F)cc2)n1 (single isomer, unassigned) [Example 28-47, 1-[(1S,2S,4S or 1R,2R,4R)-4-azetidin-1-yl-2-cyanocyclohexyl]-3-({4-[(1S or 1R)-2,2,2-trifluoro-1-hydroxyethyl]phenyl}amino)-1H-pyrazole-4-carboxamide]
17 | 0.06 | CC1(C)CN([C@H]2CC[C@H](n3cc(C(N)=O)c(Nc4ccc([C@@H](O)C(F)(F)F)cc4)n3)[C@@H](C#N)C2)C1 (single isomer, unassigned) [Example 28-61, 1-[(1S,2S,4S or 1R,2R,4R)-2-cyano-4-(3,3-dimethylazetidin-1-yl)cyclohexyl]-3-({4-[(1R or 1S)-2,2,2-trifluoro-1-hydroxyethyl]phenyl}amino)-1H-pyrazole-4-carboxamide]
18 | 0.65 | CN([C@H]1CCC(n2cc(C(N)=O)c(Nc3ccc(Cl)cc3)n2)[C@@H](C#N)C1)C1(C)COC1 (single isomer, unassigned) [Example 28-232, 3-[(4-chlorophenyl)amino]-1-{(1S,2S,4S or 1R,2R,4R)-2-cyano-4-[methyl(3-methyloxetan-3-yl)amino]cyclohexyl}-1H-pyrazole-4-carboxamide]
